Measurements as given in article PMC7253423, “Quassinoid analogs with enhanced efficacy for treatment of hematologic malignancies target the PI3Kγ isoform” (Communications Biology, 2020).

What was measured:
[1] = system: normal T-cells; test: Cytotoxicity, cell viability assay in normal cells; type: cell-based, human; settings: fraction of 0 μM control
Description: Human peripheral blood mononuclear cells (PBMCs), normal T-cells and B-cells were provided by the University of Pennsylvania Human Immunology Core (HIC), and Patient-derived xenografts (PDXs) were obtained from Fox Chase Cancer Center (FCCC). These samples were from different unidentified and healthy donors with written, informed consent. All the procedures were approved by the Institutional Review Board (IRB) and conducted according to the declarations of Helsinki protocols.
(§1) 5000 cells as indicated were cultured in 96-well plate with 100 μl of media. On the next day, Brusatol or associated analogs were added once to the cells without media change. After treatment, the cells were incubated with 100 μl buffer for 10 min at room temperature following the instructions of CellTiter-Glo kit (Promega, Madison, WI). Luminescence was detected using a multi-mode reader Cytation 5 (BioTek, Winooski, VT). Brusatol or its analogs are dissolved in 100% ethanol and diluted in 1 × PBS for treatment. Two independent experiments done in duplicates were performed.

[2] = system: MOLM14 cells; test: Cell viability assay (CellTiter-Glo luminescence); type: cell-based; settings: human
Procedure: as §1

[3] = system: SU-DHL-4 cells; test: Cell viability assay (CellTiter-Glo luminescence); type: cell-based; settings: human
Procedure: as §1

[4] = system: Raji cells; test: Cell viability assay (CellTiter-Glo luminescence); type: cell-based; settings: human
Procedure: as §1

`C[C@H](Nc1ncnc2[nH]cnc12)c1cc2cccc(Cl)c2c(=O)n1-c1ccccc1` [Duvelisib] was tested, and the “relative cell viability (Fig 6b), replicates” value ([1]; Con. 0.00390625 μM) was 1.005, the “relative cell viability (Fig 6b), replicates” value ([1]; Con. 0.25 μM) was 0.9949 and the “relative cell viability (Fig 6e), replicates” value ([2]; 0.00976562 μM) was 1.129. The “relative cell viability (Fig 6e), replicates” value ([2]; 0.0390625 μM) was 1.0712, the “relative cell viability (Fig 6e), replicates” value ([2]; 0.625 μM) was 1.2778 and the “relative cell viability (Fig 6e), replicates” value ([2]; 2.5 μM) was 1.048. The “relative cell viability (Fig 6d), replicates” value ([3]; 0.625 μM) was 0.6063, the “relative cell viability (Fig 6d), replicates” value ([3]; 10 μM) was 0.2289 and the “relative cell viability (Fig 6f), replicates” value ([4]; 0.00244141 μM) was 0.9023. The “relative cell viability (Fig 6f), replicates” value ([4]; 0.0390625 μM) was 1.115, the “relative cell viability (Fig 6f), replicates” value ([4]; 0.15625 μM) was 0.8918 and the “relative cell viability (Fig 6f), replicates” value ([4]; 0.625 μM) was 1.0906.
